Test in all cases: Antimicrobial activity, broth microdilution MIC
Common to all, as to type: cell-based
What all share (conditions): modified CLSI broth microdilution, LB medium, 1 × 10^6 CFU/ml, 37 °C, 18 to 20 hours, absorbance 600 nm

In test [1] the test system is Staphylococcus epidermidis (1.4260). As for the experimental part: (§1) The antibacterial activities of the peptides against three Gram-negative bacteria and three Gram-positive bacteria strains were measured using a modified version of the Clinical Laboratory and Standards Institute (CLSI) broth microdilution method as described previously. Three Gram-negative bacteria, Escherichia coli (1.8732), Pseudomonas aeruginosa (1.2421), and Klebsiella pneumonia (1.1736), and three Gram-positive bacteria, Staphylococcus aureus (1.8721), Staphylococcus epidermidis (1.4260), and Bacillus subtilis (1.3376), were purchased from the China General Microbiological Culture Collection Centre (CGMCC). Briefly, bacteria were grown in liquid LB medium (tryptone, 10 g/L, yeast extract, 5 g/L and NaCl, 10 g/L) at 37 °C to mid-log phase, and the bacteria were diluted to 1 × 10^6 colony-forming units (CFU)/ml. The peptides were serially diluted with phosphate-buffered saline (PBS), and 50 μl diluted peptides were added to 50 μl of the bacterial suspension in 96-well plate (Corning Inc., Lowell, MA, USA). After incubation at 37 °C for 18 to 20 hours, the absorbance of each well was recorded using a multi-well microplate reader (SpectraMax M5; Molecular Devices, Sunnyvale, CA, USA) at 600 nm. The lowest concentration at which the peptide inhibited complete growth of the bacteria was taken as the minimal inhibitory concentration (MIC).

Test [2] concerns Staphylococcus aureus (1.8721). As for the experimental part:
as §1

For test [3], the system named is Pseudomonas aeruginosa (1.2421). As for the experimental part:
as §1

Test [4] relates to Escherichia coli (1.8732). As for the experimental part: as §1
For test [5], the system named is Bacillus subtilis (1.3376). As for the experimental part:
as §1

This is an account of results in publication PMC4897634, “Design of an α-helical antimicrobial peptide with improved cell-selective and potent anti-biofilm activity” (Scientific Reports, 2016).

Each structure is given as a SMILES string. ≈ marks a conversion by molar mass, not a printed value. Where “and” joins values, the source holds several entries; their conditions need not be identical. Equal entries are not always repeated.

Regarding `CC[C@H](C)[C@H](NC(=O)CN)C(=O)NCC(=O)N[C@@H](C)C(=O)N[C@H](C(=O)N[C@@H](CC(C)C)C(=O)N[C@@H](CCCCN)C(=O)N[C@H](C(=O)N[C@@H](CC(C)C)C(=O)N[C@H](C(=O)N[C@H](C(=O)NCC(=O)N[C@@H](CC(C)C)C(=O)N1CCC[C@H]1C(=O)N[C@@H](C)C(=O)N[C@@H](CC(C)C)C(=O)N[C@H](C(=O)N[C@@H](CO)C(=O)N[C@@H](Cc1c[nH]c2ccccc12)C(=O)N[C@H](C(=O)N[C@@H](CCCCN)C(=O)N[C@@H](CCCNC(=N)N)C(=O)N[C@@H](CCCCN)C(=O)N[C@@H](CCCNC(=N)N)C(=O)N[C@@H](CCC(N)=O)C(=O)N[C@@H](CCC(N)=O)C(N)=O)[C@@H](C)CC)[C@@H](C)CC)[C@@H](C)O)[C@@H](C)O)C(C)C)C(C)C` [Melittin, reference compound], the “MIC S. epidermidis” value in test [1] was 3.125 µM and 3.13 µM. In addition, the “MIC S. aureus” value in test [2] is 3.125 µM and 3.13 µM. Besides, in test [3], the “MIC P. aeruginosa” value came out at 6.25 µM (≈ 17.8 µg/mL). Besides, in test [4], the “MIC E. coli” value was 12.5 µM (≈ 35.6 µg/mL). Further, in test [5], the “MIC B. subtilis” value is 3.125 µM and 3.13 µM.
